Values of other authors in publication PMC5689474 (Amino acids, 2010).

Chains of the proteins cited; added tags and fusions are not shown.
UniProt P33535, whole entry: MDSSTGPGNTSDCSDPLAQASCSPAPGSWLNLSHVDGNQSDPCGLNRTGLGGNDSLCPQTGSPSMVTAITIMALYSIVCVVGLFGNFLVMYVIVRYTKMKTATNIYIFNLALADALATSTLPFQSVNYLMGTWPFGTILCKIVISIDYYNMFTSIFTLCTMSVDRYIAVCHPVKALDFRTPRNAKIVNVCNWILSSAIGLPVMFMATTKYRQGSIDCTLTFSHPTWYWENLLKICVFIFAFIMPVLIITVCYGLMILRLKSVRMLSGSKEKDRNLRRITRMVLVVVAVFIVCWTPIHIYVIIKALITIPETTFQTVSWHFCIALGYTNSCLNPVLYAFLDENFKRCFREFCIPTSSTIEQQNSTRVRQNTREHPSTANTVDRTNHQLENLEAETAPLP

Key:
hDOR (δ-receptor) = hDOR (δ-receptor) (Homo sapiens, UniProt P41143); settings: net total bound/basal binding × 100 ± SEM; ref Lipkowski et al. (1999)
hMOR (μ-receptor) = hMOR (μ-receptor) (Rattus norvegicus, UniProt P33535); settings: net total bound/basal binding × 100 ± SEM; ref Lipkowski et al. (1999)

Substance: Tyr-D-Ala-Gly-Phe-NH-NH\-Phe\-Gly\-D-Ala\-Tyr [Bph]
- GTP binding Emax, hDOR (hDOR (δ-receptor)): 27 ± 3%
- GTP binding Emax, hMOR (hMOR (μ-receptor)): 25 ± 4%
